The species named for this test is Homo sapiens. In words: Selectivity index, ratio of IC50 for inhibition of human recombinant HDAC1 to IC50 for inhibition of human recombinant HDAC6.

Regarding `CN(Cc1ccc(C(=O)NO)cc1F)CC12CC3CC(CC(C3)C1)C2`, the Ratio IC50 is more than 16000.

For the origin of these results see ChEMBL document CHEMBL4145695, “Histone Deacetylase 6-Selective Inhibitors and the Influence of Capping Groups on Hydroxamate-Zinc Denticity” (J Med Chem, 2018).
